Values of other authors as cited in patent US6716451B1, “Formulation and delivery method to enhance antioxidant potency of vitamin E” (Soft Gel Technologies, Inc., priority 1999, dated 2004).

Conditions: daily doses of 100 to 500 mg

detrimental effects: No evidence of detrimental effects
Substance: Vitamin E
